The chains behind the UniProt entries cited, without tags or fusion partners. Where a name states a change or a piece, a line headed by the entry shows the natural chain unless it says otherwise.
UniProt P00915: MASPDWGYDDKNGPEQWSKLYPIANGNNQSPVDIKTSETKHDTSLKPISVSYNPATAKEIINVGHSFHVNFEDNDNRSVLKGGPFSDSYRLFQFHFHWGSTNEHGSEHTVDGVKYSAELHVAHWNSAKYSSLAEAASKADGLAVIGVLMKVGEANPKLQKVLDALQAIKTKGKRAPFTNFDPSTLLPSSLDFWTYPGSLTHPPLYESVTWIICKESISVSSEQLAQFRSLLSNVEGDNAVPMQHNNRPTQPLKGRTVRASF

In ChEMBL document CHEMBL2413008, “Carbonic anhydrase inhibitors: Synthesis and inhibition of the cytosolic mammalian carbonic anhydrase isoforms I, II and VII with benzene sulfonamides incorporating 4,5,6,7-tetrachlorophthalimide moiety” (Bioorg Med Chem, 2013):

Target: Carbonic anhydrase 1 (Homo sapiens, UniProt P00915)

Ki: 150 nM
Structure (SMILES): NS(=O)(=O)c1ccc(N2C(=O)c3c(Cl)c(Cl)c(Cl)c(Cl)c3C2=O)c(Cl)c1
